This is an account of results in ChEMBL document CHEMBL1153777, “Substituted benzothiadizine inhibitors of Hepatitis C virus polymerase” (Bioorg Med Chem Lett, 2009).

The species entered for the series is Homo sapiens. Put plainly: Protein binding in human plasma by equilibrium dialysis. As to conditions: read-out: PPB. In general terms: Equilibrium dialysis compares concentrations on both sides of a semipermeable membrane.

As to `O=c1c(C2=Nc3ccccc3S(=O)(=O)N2)c(O)c2cc(F)ccc2n1CCC1CC1`, the fraction unbound was 0.001.
